## AlphaSeq binding of Ab-14 light chain variants to a spike HR2 peptide

Target peptide (SARS-CoV-2 spike, HR2 region): PDVDLGDISGINAS

Ab-14 is the parent antibody, in scFv form: VH, then a (GGGGS)3 linker, then VL. The heavy chain is unchanged in all variants.
VH: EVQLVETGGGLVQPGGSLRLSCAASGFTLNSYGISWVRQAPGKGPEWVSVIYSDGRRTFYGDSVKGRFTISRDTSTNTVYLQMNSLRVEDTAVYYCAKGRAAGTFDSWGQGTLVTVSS
VL: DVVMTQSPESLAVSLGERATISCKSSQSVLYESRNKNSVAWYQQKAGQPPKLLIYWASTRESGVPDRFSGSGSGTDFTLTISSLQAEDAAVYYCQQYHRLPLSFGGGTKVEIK

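The parent was found by panning a naive human phage display library on the peptide. This is the validation round: designs drawn from the data on random variants, tested in the same kind of assay. Group labels follow the data file (Ctrl: baseline library sampled from a position-specific scoring matrix, with some repeated check sequences; Rand: our label for a block that the file lists under HC and that is probably the random mutants of the ten best first-round binders; En: ensemble of fine-tuned language models; GP: Gaussian process model; HC: hill climbing; Gen: genetic algorithm; Gibbs: Gibbs sampling; a sequence that several methods proposed may carry one label only). The assay is AlphaSeq: two haploid yeast populations carry antibody and antigen on their surface. The frequency of each diploid, read from paired DNA barcodes, reflects how well the two displayed proteins bind. The ratio of observed to expected reads was calibrated, replicate by replicate, on BCL2-family standards whose Kd was known from biolayer interferometry. Mating was done six times.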

The parent's light chain CDRs are KSSQSVLYESRNKNSVA, WASTRES, QQYHRLPLS; each variant's own CDRs replace them letter for letter. The read-out is the apparent dissociation constant on a log10 scale (nM): the lower, the stronger. The mean shown is taken over the replicates in which the pair was detected. A pair that was not seen in that replicate is written "n.d."; this usually means weak binding, but a binder can also be missed. The authors averaged sequences with at least three values out of six and counted those with two or fewer as poor binders. Nonspecific signal, from three strains lacking the peptide, appeared in 4% of pairings of all light chain designs, centred on 2.64 (5% of these signals below 1.59); values are not corrected for it. Values of this round are not directly comparable with the first-round values of the same sequences.

CDR-L1 | CDR-L2 | CDR-L3 | group | log10 Kd, replicates | mean, log10 nM
KSSISYLGEARNKNSVA | EASTRES | QQYHRLPLS | GP_HC | 0.86 / 0.61 / 0.77 / 1.34 / 0.31 / 1.01 | 0.82
KSSQSVLVESSNKNSVA | WASTRES | QQYQRLPLS | Ctrl | 1.58 / 1.36 / 2.08 / 1.82 / 1.85 / 1.84 | 1.76
KLSQSWLYESRNKNSVA | EASTREM | QQYHRLPLS | GP_Gen | -0.12 / -0.12 / -0.18 / -0.38 / 0.31 / 0.29 | -0.03
KSSQSVLYESRNKNSVA | WASTREW | QQYHRLPLS | Ctrl | n.d. / n.d. / 2.16 / n.d. / n.d. / n.d. | 2.16
KLEQSTNYESRNKNSVA | NASTRES | QQYHRLPLS | GP_HC | 0.27 / 0.31 / 0.24 / 0.18 / 0.14 / 0.68 | 0.30
KSSGSVLFESRNKNSVA | DASTRSS | QQYHRLPLS | GP_HC | 0.56 / 0.44 / 0.35 / 0.46 / 0.34 / 0.58 | 0.46
KIGMTLNTLMHQKNNVA | DLVEREN | QQYHRLPLS | En_Gen | 0.11 / 0.11 / -0.06 / 0.13 / 0.06 / 0.52 | 0.15
KSSQSVLYESENKNSVA | WCSTRES | QQYHRLPLS | Ctrl | n.d. / 2.14 / n.d. / 2.80 / n.d. / n.d. | 2.47
MMSQVTGMGQRHRNNVA | QTSTREP | QQYDRLPLI | En_Gen | 1.04 / 1.41 / 1.13 / 0.65 / 1.12 / 1.49 | 1.14
DQSQSVLYESRNKNSVA | DFSTRES | QQYHRLPLS | Rand | -0.17 / 0.19 / 0.25 / 0.91 / -0.28 / -0.09 | 0.13
KSDQSVLIESRFKNSVA | WASTRES | QQLHRLPLS | Ctrl | n.d. / n.d. / n.d. / n.d. / n.d. / n.d. | n.d.
KISLSVLSESRNKNSVA | WASTRES | QQSHRLPLS | Ctrl | 3.00 / 1.34 / 1.73 / 1.36 / 1.69 / 1.62 | 1.79
MLSGVLHMLGQKKNSIA | DLVNRAN | QQYHRLPLM | En_Gen | 0.03 / 0.06 / -0.25 / -0.05 / -0.45 / 0.03 | -0.10
KSSQSVLYESVNKNSVA | WASTRES | QQYIREPLS | Ctrl | n.d. / n.d. / n.d. / 1.94 / n.d. / n.d. | 1.94
KLSQSVPYESRNKNSVA | NASTRES | QQYHRLPLM | GP_Gen | 0.29 / 0.09 / 0.27 / -0.10 / 0.11 / 0.34 | 0.17
KLYDMAAVTMNNIRNVA | DNDTREQ | QQYHRLPLS | En_Gen | 1.02 / 0.51 / 0.82 / 1.20 / 0.60 / 1.04 | 0.87
KFSQSVLYESRTPNSVA | NASTRES | QQYHRLPLS | GP_HC | -0.28 / -0.24 / -0.88 / -0.56 / -0.61 / -0.50 | -0.51
KSSQSVLYESRNKKSVA | WASTRPS | QQYHRLPLM | Ctrl | n.d. / 4.04 / n.d. / n.d. / n.d. / n.d. | 4.04
KSSQSVLYESRNKNSVA | WASTRES | MQYHRLPLS | Ctrl | n.d. / n.d. / 2.92 / n.d. / n.d. / n.d. | 2.92
KSSQSVLYEQRNVHSVA | FASTRES | QQYHRLPLS | Ctrl | n.d. / 2.97 / n.d. / n.d. / 3.20 / n.d. | 3.08
YQSQSVLQESRNKNSVA | WASTRLS | QQEHRLPLS | Ctrl | n.d. / n.d. / n.d. / n.d. / n.d. / n.d. | n.d.
KFSQSVGYESRNKNSVA | NAQTRLE | QQYHRLPLS | GP_Gibbs | 0.87 / 0.47 / 0.62 / 0.50 / 0.31 / 0.83 | 0.60
KSSQSNLYESRNKNSVA | RASTRNS | QQYHRLPLS | Ctrl | 1.83 / 1.55 / 1.19 / 1.30 / 1.46 / 1.45 | 1.46
KSSQSEPYESRNKNSVA | NASQRYQ | QQYHRLPLS | GP_Gibbs | 2.36 / 0.33 / 0.03 / 0.85 / 0.75 / 0.82 | 0.86
KSSQSVLYEIRNKGAVA | RASTRES | QQYHRLPLS | Ctrl | n.d. / n.d. / n.d. / 1.13 / n.d. / 2.44 | 1.78
KLQQMELYMSRNKNSVA | DASQRES | QAYHRLPLS | GP_Gibbs | 0.16 / -0.14 / -0.04 / -0.32 / -0.36 / 0.11 | -0.10
KQSQSVLYESRNCNSVA | DASTNES | QQYHRLLLS | Rand | n.d. / n.d. / n.d. / n.d. / n.d. / n.d. | n.d.
KLRQSTKYESRNQNSVA | AASTRES | QQYHRLPLS | GP_HC | 0.23 / 0.18 / 0.27 / 0.03 / 0.32 / 0.19 | 0.20
KFAYGLDYNSAHKSAVA | HADIRVI | QQYFRLPLD | En_Gibbs | 1.41 / 1.77 / 1.17 / 2.44 / 2.27 / n.d. | 1.81
KIRVQQYSQSEMEDNIA | QESTRHQ | QQYFHLPLS | En_Gibbs | n.d. / 1.90 / n.d. / 1.48 / 2.02 / 2.21 | 1.90
KNSQSVLYESANKNSVA | EGSTRES | QQYHRLPLS | Ctrl | 0.17 / 0.16 / 0.00 / -0.02 / -0.14 / 0.20 | 0.06
KLGSVTSYEMQNKNSVA | QMTTRES | QQYHRLPLS | En_HC | 0.15 / 0.04 / 0.18 / -0.20 / -0.12 / 0.05 | 0.02
KMSQSWGYESRNSNSVA | EASTRES | QDYHRLPLS | GP_Gibbs | 0.93 / 0.64 / 0.89 / 0.60 / 0.72 / 0.84 | 0.77
IISQSVLYESRNKNSVA | NASTRES | QQYHRLPLS | GP_HC | 0.09 / 0.11 / -0.04 / -0.07 / -0.02 / 0.20 | 0.05
KLSQSDLYESRWKNSVA | GASQRES | QQYHRLPLS | GP_HC | 0.28 / 0.33 / 0.09 / 0.10 / 0.28 / 0.30 | 0.23
MLSQMWAIGMKAKNSVA | QASMRFN | QQYDRLPLI | En_Gen | n.d. / 1.00 / 2.69 / 3.19 / n.d. / 2.09 | 2.24
HITYGMQVMGRHSKSIA | QAEERAR | QQYDRLPLI | En_Gen | 0.84 / 0.67 / 0.65 / 0.90 / 0.86 / 0.78 | 0.78
KLQQSVLYESRNKNSVA | NASYRES | QQYHRLPLS | GP_Gen | -0.13 / -0.21 / -0.46 / -0.47 / -0.44 / 0.01 | -0.28

The first 3 variants above that were never detected:

CDR-L1 | CDR-L2 | CDR-L3 | group | log10 Kd, replicates | mean, log10 nM
KSDQSVLIESRFKNSVA | WASTRES | QQLHRLPLS | Ctrl | n.d. / n.d. / n.d. / n.d. / n.d. / n.d. | n.d.
YQSQSVLQESRNKNSVA | WASTRLS | QQEHRLPLS | Ctrl | n.d. / n.d. / n.d. / n.d. / n.d. / n.d. | n.d.
KQSQSVLYESRNCNSVA | DASTNES | QQYHRLLLS | Rand | n.d. / n.d. / n.d. / n.d. / n.d. / n.d. | n.d.

Reference: Li et al. 2023, doi:10.1038/s41467-023-39022-2. File: FLAb, binding data.